The results in this text go back to PubChem BioAssay AID652036 (The Scripps Research Institute Molecular Screening Center, 2013).

Each structure is given as a SMILES string. The entries are a selection whose mix differs from that of the whole data set. Calls of active or inactive are those of the source. No stated cut-off is given here; in the data, active means inhibition above about 19%; inactive means the rest.

The experiment relates to T-cell receptor (TCR)-CD3 interaction, human. Description: TCR-CD3 interaction inhibitors, retest, confirmation, biochemical, fluorescence, TAMRA-labeled TCR probe (AID 652036). To be noted: TAMRA-labeled TCR probe fluorescence binding assay; at 9.4 µM; hits give high values.
On to `Nc1cccc2c([As](=O)(O)O)cccc12`, for which the inhibition is active: 27.1%.
